From US20240034776A1 (FUDAN UNIVERSITY, published 2024)

Target: T1, Flag-tagged full-length human ITPRIPL1 (expressed from pcDNA3.1 in transfected cells) (human, UniProt Q6GPH6 25-555)
T1 construct: cDNA from NCBI NM_001008949.3; also called ITPRIPL1-Flag; HCT116-ITPRIPL1 stably transfected cell lines; not shown: C-terminal Flag tag
T1 sequence: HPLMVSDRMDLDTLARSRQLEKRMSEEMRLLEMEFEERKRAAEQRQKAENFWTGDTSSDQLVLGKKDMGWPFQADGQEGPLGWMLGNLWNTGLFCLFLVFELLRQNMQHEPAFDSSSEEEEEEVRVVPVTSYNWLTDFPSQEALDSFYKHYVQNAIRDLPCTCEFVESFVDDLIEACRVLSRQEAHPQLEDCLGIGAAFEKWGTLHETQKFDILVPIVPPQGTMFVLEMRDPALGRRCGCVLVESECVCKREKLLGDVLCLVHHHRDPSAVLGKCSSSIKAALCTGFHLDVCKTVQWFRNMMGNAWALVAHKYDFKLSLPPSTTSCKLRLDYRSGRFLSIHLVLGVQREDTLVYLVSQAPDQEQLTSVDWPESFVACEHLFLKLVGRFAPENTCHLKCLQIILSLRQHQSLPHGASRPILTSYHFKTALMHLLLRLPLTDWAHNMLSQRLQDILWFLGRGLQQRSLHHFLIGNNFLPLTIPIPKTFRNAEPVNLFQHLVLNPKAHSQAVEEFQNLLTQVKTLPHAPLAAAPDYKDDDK
Assay: co-immunoprecipitation (Flag IP) from co-transfected HCT116 cells, Western blot

binding result: binds
B1: HA-tagged CD3ε (expressed from pcDNA3.1 in transfected HCT116 cells) (receptor, human, UniProt P07766 23-207, looked up)
chain: DGNEEMGGITQTPYKVSISGTTVILTCPQYPGSEILWQHNDKNIGGDEDDKNIGSDEDHLSLKEFSELEQSGYYVCYPRGSKPEDANFYLYLRARVCENCMEMDVMSVATIVIVDICITGGLLLLVYYWSKNRKAKAKPVTRGAGAGGRQRGQNKERPPPVPNPDYEPIRKGQRDLYSGLNQRRI
notes: whole, on cells; also called CD3ε-HA; CD3E-HA; not shown: HA tag
